Measurements: ChEMBL document CHEMBL1141723, “Specific targeting of metzincin family members with small-molecule inhibitors: progress toward a multifarious challenge” (Bioorg Med Chem, 2008)
pIC50, pKi: −log10 of the molar value.

The chains behind the UniProt entries cited, without tags or fusion partners. Where a name states a change or a piece, a line headed by the entry shows the natural chain unless it says otherwise.
UniProt P08253: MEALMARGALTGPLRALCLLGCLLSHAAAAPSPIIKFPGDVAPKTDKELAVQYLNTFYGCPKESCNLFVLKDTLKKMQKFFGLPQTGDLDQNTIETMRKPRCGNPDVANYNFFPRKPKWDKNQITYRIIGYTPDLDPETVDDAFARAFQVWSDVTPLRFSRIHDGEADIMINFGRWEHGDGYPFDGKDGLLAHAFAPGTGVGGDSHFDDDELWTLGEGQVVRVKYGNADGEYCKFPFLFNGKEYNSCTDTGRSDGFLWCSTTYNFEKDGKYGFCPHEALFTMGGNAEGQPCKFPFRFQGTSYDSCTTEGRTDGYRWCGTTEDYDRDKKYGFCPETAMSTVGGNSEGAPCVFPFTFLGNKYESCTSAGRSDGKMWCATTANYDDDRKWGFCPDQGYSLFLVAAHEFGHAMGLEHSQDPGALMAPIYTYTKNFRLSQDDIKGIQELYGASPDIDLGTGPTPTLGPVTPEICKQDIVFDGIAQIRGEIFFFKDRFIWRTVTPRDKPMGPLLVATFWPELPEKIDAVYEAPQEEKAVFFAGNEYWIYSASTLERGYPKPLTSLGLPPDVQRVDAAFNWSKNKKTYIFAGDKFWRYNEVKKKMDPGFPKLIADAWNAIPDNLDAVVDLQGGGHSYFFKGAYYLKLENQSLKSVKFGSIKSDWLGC

Assays:
[1] = molecular target: 72 kDa type IV collagenase (Homo sapiens, UniProt P08253)
[2] = molecular target: T1, Disintegrin and metalloproteinase domain-containing protein 33 (Homo sapiens, UniProt Q9BZ11); assay: Inhibition of ADAM33
T1 sequence (Q9BZ11 whole entry): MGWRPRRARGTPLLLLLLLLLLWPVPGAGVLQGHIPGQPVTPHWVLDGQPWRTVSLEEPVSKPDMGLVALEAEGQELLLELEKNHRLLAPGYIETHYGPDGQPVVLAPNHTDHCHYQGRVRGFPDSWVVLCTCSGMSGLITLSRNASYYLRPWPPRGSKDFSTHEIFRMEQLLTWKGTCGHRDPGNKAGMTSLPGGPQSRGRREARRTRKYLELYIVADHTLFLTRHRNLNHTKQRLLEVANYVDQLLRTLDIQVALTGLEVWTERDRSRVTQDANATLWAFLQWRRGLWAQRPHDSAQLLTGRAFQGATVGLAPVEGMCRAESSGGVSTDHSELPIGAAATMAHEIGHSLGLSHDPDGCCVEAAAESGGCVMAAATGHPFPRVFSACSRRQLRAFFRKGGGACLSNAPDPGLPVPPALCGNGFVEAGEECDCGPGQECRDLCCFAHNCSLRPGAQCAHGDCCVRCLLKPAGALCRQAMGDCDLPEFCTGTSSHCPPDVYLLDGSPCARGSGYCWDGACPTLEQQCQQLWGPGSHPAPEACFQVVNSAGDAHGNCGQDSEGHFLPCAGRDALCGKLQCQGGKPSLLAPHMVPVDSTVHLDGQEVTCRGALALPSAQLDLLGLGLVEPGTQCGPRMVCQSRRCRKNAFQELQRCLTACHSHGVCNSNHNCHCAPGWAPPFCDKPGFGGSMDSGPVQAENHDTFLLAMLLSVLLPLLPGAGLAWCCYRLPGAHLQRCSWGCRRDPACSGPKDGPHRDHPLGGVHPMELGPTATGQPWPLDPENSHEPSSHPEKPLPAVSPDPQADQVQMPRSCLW

[3] = molecular target: T2, Matrilysin (Homo sapiens, UniProt P09237)
T2 sequence (P09237 whole entry): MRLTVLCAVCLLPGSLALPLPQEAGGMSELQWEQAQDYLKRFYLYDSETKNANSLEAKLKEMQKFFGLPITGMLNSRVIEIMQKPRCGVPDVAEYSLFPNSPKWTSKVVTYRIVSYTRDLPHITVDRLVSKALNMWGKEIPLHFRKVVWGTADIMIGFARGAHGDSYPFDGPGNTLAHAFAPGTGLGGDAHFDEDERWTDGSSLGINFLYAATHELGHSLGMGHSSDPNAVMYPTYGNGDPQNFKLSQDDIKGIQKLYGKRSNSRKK

Row | pKi [1] | pIC50 [2] | pIC50 [3] | pIC50 [1] | SMILES
1 | < 4.00 |  |  |  | CS(=O)(=O)NCc1noc([C@H](CCCC2CCCCC2)CC(=O)NO)n1
2 |  | 5.38 | < 5.30 | < 5.30 | CN1CC2(CC2)C[C@H](C(=O)NO)[C@H]1C(=O)N1CCN(c2ccc(C(F)(F)F)cn2)CC1
